Tested on: p-glycoprotein (abcb1a and abcb1b)
Details: male, abcb1ab(-/-) on FVB/N background and FVB/N wildtype, mouse, in vivo, 11 days
Experimental: Venlafaxine and o-desmethylvenlafaxine (d-venlafaxine) was obtained from Wyeth-Pharma GmbH (Münster, Germany). […] Protriptyline was purchased from RBI (Massachusetts, USA). All other chemicals were obtained in the purest grade available from Merck (Darmstadt, Germany).
Male abcb1ab(−/−) mice and FVB/N wildtype mice were housed individually and maintained on a 12:12 h light/dark cycle (lights on at 07:00), with food and water ad libitum. Abcb1ab double knockout mice, originally created by A. Schinkel by sequential gene targeting in 129/Ola E14 embryonic stem cells^28 and backcrossed seven times (N7) to FVB/N from the C57BL/6×129 chimera, and FVB/N wildtype mice were received from Taconic (Germantown, USA; FVB/Tac-[KO]Pgy2 N7). A homozygous colony is maintained at the Max-Planck Institute of Psychiatry on the N7 FVB/N background through intercrossing of homozygous mice.
Experimental and extraction procedures were performed as described before^12,26. […] After 11 days, the mice were anesthetized and sacrificed. […]
HPLC measurements were performed as described before^12,26. A Beckman gradient pump, autoinjector, UV detector and a Merck fluorescence detector, were used for the high-performance liquid chromatography analysis. […] The substances were determined by UV absorption and fluorescence at the described wavelength (Table 3). […]

CN(C)CCCC1(c2ccc(F)cc2)OCc2cc(C#N)ccc21 (stereo not shown) [citalopram]
fold higher concentration in the brain of abcb1ab (-/-) mutant compared to wildtype animals (cerebrum/plasma ratio): 3 fold

From patent US8030033B2, “Polymorphisms in ABCB1 associated with a lack of clinical response to medicaments” (priority 2004, dated 2011)
